Results on 1 molecule are retold here after article PMC5321639, “Design and pharmacodynamics of recombinant NZ2114 histidine mutants with improved activity against methicillin-resistant Staphylococcus aureus” (AMB Express, 2017).

Structures are written as SMILES. Values after ≈ are worked out from the molar mass of the structure shown. Read-outs that look alike come from different tables or passages of the source. Marks after values point to notes of the source that are not given here.

One series deals with rabbit and human RBCs. As to conditions: ref Yang et al. [2011], Zhang et al. [2014]; cited from earlier work. The source says: (§1) Although the values were higher than NZ2114 due to the high charge and hydrophilicity, they were still very low in the range of MICs. […] Owing to contribution from the three pairs of disulfide bond into th ...
The conditions of series [1]: ref Zhang et al. [2014], cited from earlier work.
Source text: as §1

Another series deals with S. suis CVCC3309. Briefly: MIC assay. The class given is cell-based, Streptococcus suis. To be noted: MHB, 1 × 10^5 CFU/ml, 37 °C, 18–24 h, triplicate. The protocol: (§2) The peptide solutions were diluted twofold with the range of final concentrations were 0.015–32 µg/ml (0.003–7.273 µM) for purified H1, H2, H3, H6, and H8. The test strains were grown in MHB medium at 37 °C to an OD600 of 0.4 and diluted to 1 × 10^5 CFU/ml. The 10 µl peptide and 90 µl cell suspension were added into each well. All assays were performed in triplicate. The antimicrobial activity of NZ2114 and vancomycin were tested as positive controls. The plates were incubated at 37 °C for 18–24 h. MIC was defined as the lowest peptide concentration of ones at which there was no visible growth (Tian et al. [2009]).

A further series relates to S. suis CVCC3928. Briefly: MIC assay. In kind it is cell-based, Streptococcus suis. To be noted: MHB, 1 × 10^5 CFU/ml, 37 °C, 18–24 h, triplicate. The protocol: as §2
In a further series the test system is S. suis CVCC606. Briefly: MIC assay. In kind it is cell-based, Streptococcus suis. As to conditions: MHB, 1 × 10^5 CFU/ml, 37 °C, 18–24 h, triplicate. The protocol: as §2
A further series concerns S. enteritidis CMCC50336. Briefly: MIC assay. In kind it is cell-based, Salmonella enteritidis. As to conditions: MHB, 1 × 10^5 CFU/ml, 37 °C, 18–24 h, triplicate. Here is the method:
as §2

In the next series the test system is E. coli CVCC195. Briefly: MIC assay. As to conditions: MHB, 1 × 10^5 CFU/ml, 37 °C, 18–24 h, triplicate. In kind it is cell-based, Escherichia coli. The protocol:
as §2

In a further series the test system is E. coli CICC21530. Briefly: MIC assay. In kind it is cell-based, Escherichia coli. As to conditions: MHB, 1 × 10^5 CFU/ml, 37 °C, 18–24 h, triplicate. The protocol:
as §2

Series [2] has as its system S. aureus ATCC43300. To be noted: NZ2114 combined with ampicillin; ref Zhang et al. [2014]; cited from earlier work. Here is the method: The synergism effect of H1, H2 and H3 with traditional antibiotics which have different action mechanisms (vancomycin and ampicillin on cell wall, rifampicin on RNA, ciprofloxacin on DNA) was evaluated (Table 4). […] Meanwhi ...
In a further series the test system is S. choleraesuis CVCC503. Briefly: MIC assay. The class given is cell-based. As to conditions: MHB, 1 × 10^5 CFU/ml, 37 °C, 18–24 h, triplicate. Here is the method: as §2
Another series has as its system S. pullorum CVCC1789. Briefly: MIC assay. The class given is cell-based. To be noted: MHB, 1 × 10^5 CFU/ml, 37 °C, 18–24 h, triplicate. The protocol: as §2
For the next series, the system named is S. typhimurium ATCC14028. Briefly: MIC assay. In kind it is cell-based. To be noted: MHB, 1 × 10^5 CFU/ml, 37 °C, 18–24 h, triplicate. Here is the method: as §2
For series [3], the system named is S. aureus ATCC43300. Briefly: Postantibiotic effect (PAE). In kind it is cell-based, Staphylococcus aureus. To be noted: 2× MIC, 2 h exposure at 37 °C, 1 × 10^8 CFU/ml, drug removed by 1:10^3 dilution; mean ± SD, n = 3. Here is the method:
After 2 h, the drug was removed by diluting 1:10^3 into the MHB and incubated at 37 °C, 250 rpm. The sample was taken to plate counting every 1 h until the bacterial cultures become turbid. The PAE was calculated by the following formula: PAE = T − C, where T is the time needed for the count of CFU in the test culture to increase 1 log10 (10-fold) above the 0 h and C is the time needed for the count of CFU in the untreated control culture to increase 1 log10 above the 0 h (Giguère et al. [2012]).

The next series concerns Streptococcus pneumoniae. To be noted: S. pneumoniae; ref Ostergaard et al. [2009]; Zhang et al. [2014]; Andes et al. [2009]; Xiong et al. [2011]; cited from earlier work. The source says: (§3) Antimicrobial peptides (AMPs) are potent drugs known for their broad-spectrum of antimicrobial properties and particularly against antibiotic-resistant bacteria (Brogden and Brogden [2011]). However, some flaws hamper the clinical usage of AMPs, such as toxicity to normal mammalian cells and the lack of a cost-effective way of commercial-scale production (Cao et al. [2015]).

A further series deals with S. aureus. As to conditions: ref Ostergaard et al. [2009], Zhang et al. [2014], Andes et al. [2009], Xiong et al. [2011]; cited from earlier work.
Source text: as §3

Another series deals with S. pneumoniae CVCC1.8722. Briefly: MIC assay. The class given is cell-based, Streptococcus pneumoniae. To be noted: MHB, 1 × 10^5 CFU/ml, 37 °C, 18–24 h, triplicate. Here is the method: as §2
A further series has as its system S. pneumoniae CVCC2350. Briefly: MIC assay. The class given is cell-based, Streptococcus pneumoniae. To be noted: MHB, 1 × 10^5 CFU/ml, 37 °C, 18–24 h, triplicate. Here is the method:
as §2

For another series, the system named is S. aureus ATCC25923. As to conditions: data from previous results; ref Zhang et al. [2014]; cited from earlier work. From the text:
(§4) Table 2 MIC assays of H1, H2, H3, H6, H8, NZ2114, and vancomycin against G^+ and G^− pathogens | column: MIC (μM) / NZ

The subject of the next series is S. aureus ATCC6538. To be noted: data from previous results; ref Zhang et al. [2014]; cited from earlier work.
Source text: as §4

The test system of series [4] is S. aureus ATCC43300 (MRSA). As to conditions: data from previous results, ref Zhang et al. [2014], cited from earlier work. The source says: Their characteristics of narrow-spectrum antibiot ...

By MIC is commonly meant the lowest concentration that inhibits growth of the organism. What is called MIC50 is the lowest concentration that inhibits either 50% of growth or 50% of the strains tested, depending on the study. With `CC[C@H](C)[C@@H]1NC(=O)[C@H](CO)NC(=O)[C@H](CCCCN)NC(=O)[C@@H]2CSSC[C@@H](C(=O)N[C@@H](Cc3ccc(O)cc3)C(=O)O)NC(=O)[C@H](CCCCN)NC(=O)[C@@H]3CSSC[C@H](NC(=O)[C@H](CCCNC(=N)N)NC(=O)[C@H](CC(C)C)NC(=O)[C@H](CC(=O)O)NC(=O)[C@H](CC(=O)O)NC(=O)[C@H](CCC(=O)O)NC(=O)[C@H](CC(N)=O)NC(=O)[C@H](Cc4c[nH]c5ccccc45)NC(=O)[C@@H]4CCCN4C(=O)CNC(=O)[C@H](CC(N)=O)NC(=O)[C@@H](NC(=O)CNC(=O)[C@H](Cc4ccccc4)NC(=O)CN)CSSC[C@H](NC(=O)[C@H](Cc4ccc(O)cc4)NC(=O)CNC(=O)CNC(=O)[C@H](CCCCN)NC(=O)[C@H](Cc4ccc(O)cc4)NC(=O)CNC(=O)[C@H](CCCCN)NC1=O)C(=O)N[C@@H](C)C(=O)N[C@@H](CCCCN)C(=O)NCC(=O)NCC(=O)N[C@@H](Cc1ccccc1)C(=O)N[C@@H](C(C)C)C(=O)N3)C(=O)N[C@@H](Cc1c[nH]cn1)C(=O)N[C@@H](CC(N)=O)C(=O)N[C@@H](Cc1c[nH]cn1)C(=O)N2` [NZ2114], the hemolysis entry in the series with rabbit and human RBCs is given as “no hemolysis”. Also, the activity maintained in series [1] (100 °C) was 20%. The “pH value of highest activity” value in series [1] is reported as 8.0. The initial activity retained entry in series [1] (temperatures from 20 to 80 °C) is reported as “above 80%”. For the same molecule, the MIC in the series on S. suis CVCC3309 was 0.028 µM (≈ 0.124 µg/mL); in the series on S. suis CVCC3928, 0.028 µM (≈ 0.124 µg/mL); in the series on S. suis CVCC606, 0.028 µM (≈ 0.124 µg/mL); against S. enteritidis CMCC50336 it was over 7.273 µM; in the series with E. coli CVCC195, over 7.273 µM; with E. coli CICC21530 it was over 7.273 µM. Also, the MIC against S. choleraesuis CVCC503 is over 7.273 µM; in the series with S. pullorum CVCC1789, over 7.273 µM; in the series with S. typhimurium ATCC14028 it was over 7.273 µM; against S. pneumoniae CVCC1.8722 it was 0.454 µM (≈ 2 µg/mL); against S. pneumoniae CVCC2350, 0.909 µM (≈ 4.01 µg/mL); in the series with S. aureus ATCC25923 it was 0.028^a μM. The MIC was 0.114^a μM in the series with S. aureus ATCC6538, 0.909 µM (≈ 4.01 µg/mL) in series [4] and 0.909^a μM in series [4] (listed as NZ). Also, the FICI in the series on S. aureus ATCC43300 [2] is listed as 0.125. In the series on S. aureus ATCC43300 [3], this molecule showed a PAE of 1.43 h. Besides, the MIC50 in the series on Streptococcus pneumoniae is 0.25 µg/mL (≈ 0.0567 µM); in the series with S. aureus it was 2 µg/mL (≈ 0.453 µM).
